Our source for the Ratio values is ChEMBL document CHEMBL3585305, “Structure-Based Design and Optimization of Multitarget-Directed 2H-Chromen-2-one Derivatives as Potent Inhibitors of Monoamine Oxidase B and Cholinesterases” (J Med Chem, 2015).

This series is described as follows: Efflux ratio of apparent permeability from basolateral to apical side to apical to basolateral side in MDCK2 cells expressing MDR1 at 200 ug/ml by UV-visible spectroscopy. To be noted: dog, mdck-ii. In kind it is ADME, cell-based, Canis lupus familiaris.

`CN1C(=O)CN=C(c2ccccc2)c2cc(Cl)ccc21` [DIAZEPAM]: the Ratio was found to be 0.79.
